Experimental data as given in ChEMBL document CHEMBL1128739, “Structure-activity relationships in the 8-amino-6,7,8,9-tetrahydro-3H-benz[e]indole ring system. 2. Effects of 8-amino nitrogen substitution on serotonin receptor binding and pharmacology” (J Med Chem, 1995).

The chains behind the UniProt entries cited, without tags or fusion partners.
UniProt P61169, whole entry: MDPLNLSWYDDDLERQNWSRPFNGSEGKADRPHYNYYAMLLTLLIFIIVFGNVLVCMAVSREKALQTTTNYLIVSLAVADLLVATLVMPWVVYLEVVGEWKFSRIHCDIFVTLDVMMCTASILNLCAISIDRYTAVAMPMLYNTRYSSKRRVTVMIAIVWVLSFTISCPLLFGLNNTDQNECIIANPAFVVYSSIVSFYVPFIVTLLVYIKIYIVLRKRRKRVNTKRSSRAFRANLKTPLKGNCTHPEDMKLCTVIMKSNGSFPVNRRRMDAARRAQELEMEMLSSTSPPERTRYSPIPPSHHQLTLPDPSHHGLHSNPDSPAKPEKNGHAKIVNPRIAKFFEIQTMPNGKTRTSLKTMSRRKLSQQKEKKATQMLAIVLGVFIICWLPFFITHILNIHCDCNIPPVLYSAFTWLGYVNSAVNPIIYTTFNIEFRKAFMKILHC

Biological target: D(2) dopamine receptor (Rattus norvegicus, UniProt P61169)
Assay: Binding affinity rat Dopamine receptor D2 expressed in CHO-K1 cells by [3H]U-86170 displacement.
Assay type: cell-based

SMILES | Ki
CN(C)[C@H]1CCc2ccc3[nH]ccc3c2C1 | 377 nM
CN(C)C1CCc2ccc3[nH]ccc3c2C1 (configuration not stated) | 24 nM
